The values that follow come from ChEMBL document CHEMBL1149785, “Synthesis and biological evaluation of helicid analogues as novel acetylcholinesterase inhibitors” (Eur J Med Chem, 2008).

Amino acid sequences for entries named in this document (tags omitted). Residues count along the entry.
UniProt O42275, 24-633 limits assumed: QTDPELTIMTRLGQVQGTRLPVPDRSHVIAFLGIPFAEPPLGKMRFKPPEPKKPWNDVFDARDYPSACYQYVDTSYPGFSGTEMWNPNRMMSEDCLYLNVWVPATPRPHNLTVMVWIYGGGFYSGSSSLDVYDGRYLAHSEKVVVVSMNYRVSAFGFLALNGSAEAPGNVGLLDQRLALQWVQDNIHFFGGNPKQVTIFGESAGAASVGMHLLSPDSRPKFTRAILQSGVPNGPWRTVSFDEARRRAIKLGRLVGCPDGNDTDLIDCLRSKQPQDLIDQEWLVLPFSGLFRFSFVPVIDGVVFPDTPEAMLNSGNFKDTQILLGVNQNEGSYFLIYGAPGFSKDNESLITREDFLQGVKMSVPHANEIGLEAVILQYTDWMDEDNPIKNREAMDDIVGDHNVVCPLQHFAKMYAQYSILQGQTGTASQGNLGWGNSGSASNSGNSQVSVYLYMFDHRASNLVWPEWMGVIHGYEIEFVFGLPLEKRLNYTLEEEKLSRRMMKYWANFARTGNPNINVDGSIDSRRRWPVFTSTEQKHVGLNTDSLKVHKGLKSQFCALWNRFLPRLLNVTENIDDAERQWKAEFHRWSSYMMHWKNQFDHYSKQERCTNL
UniProt P81908, whole entry, looked up: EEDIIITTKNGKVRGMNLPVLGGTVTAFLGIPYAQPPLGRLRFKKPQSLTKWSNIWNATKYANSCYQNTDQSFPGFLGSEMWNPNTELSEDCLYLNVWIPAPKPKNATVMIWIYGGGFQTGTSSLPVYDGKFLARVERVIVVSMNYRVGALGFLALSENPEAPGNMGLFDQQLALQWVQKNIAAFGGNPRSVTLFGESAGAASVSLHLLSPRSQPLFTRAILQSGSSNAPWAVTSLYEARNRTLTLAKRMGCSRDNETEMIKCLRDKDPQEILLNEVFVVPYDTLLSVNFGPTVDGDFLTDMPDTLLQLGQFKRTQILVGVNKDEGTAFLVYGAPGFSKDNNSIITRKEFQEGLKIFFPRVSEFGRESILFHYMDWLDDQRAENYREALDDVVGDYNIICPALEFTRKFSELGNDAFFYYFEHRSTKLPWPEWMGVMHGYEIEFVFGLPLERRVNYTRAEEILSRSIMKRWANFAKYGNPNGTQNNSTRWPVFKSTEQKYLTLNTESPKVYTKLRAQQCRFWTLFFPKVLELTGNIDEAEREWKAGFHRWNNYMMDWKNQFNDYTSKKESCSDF

pIC50: −log10 of the molar value.

Assay [1] has as its target Acetylcholinesterase (Electrophorus electricus, UniProt O42275). In words: Inhibition of Electrophorus electricus AChE by Ellman's method. (In general: Ellman's reagent forms a yellow product with free thiols.)
The target of assay [2] is Cholinesterase (Equus caballus, UniProt P81908). In words: Inhibition of horse serum BuChE by Ellman's method.

For `OC[C@H]1O[C@@H](Oc2ccc(/C=N/O)cc2)[C@H](O)[C@@H](O)[C@@H]1O`, the pIC50 (as a rule, the IC50 on a negative log10 scale, so that one unit is a factor of ten) in assay [1] was 5.32.
Still for that read-out and setting: with `CC(=O)OC[C@H]1O[C@@H](Oc2ccc(/C=N/O)cc2)[C@H](OC(C)=O)[C@@H](OC(C)=O)[C@@H]1OC(C)=O` the figure was 5.04.
`O=C(O[C@H]1[C@H](Oc2ccc(/C=N/O)cc2)OC[C@@H](OC(=O)c2ccccc2)[C@H]1OC(=O)c1ccccc1)c1ccccc1`: the pIC50 in assay [2] is 4.40; in assay [1], 4.90.
